Molecular target: NET (Rattus norvegicus, UniProt Q63380)
Assay: biochemical
Details: 3 h, read-out: Ki [SE interval] NET

Protein sequences, listed by entry. Tags and fused reporters are not part of them. Residues count along the entry.
UniProt Q63380, 1-617: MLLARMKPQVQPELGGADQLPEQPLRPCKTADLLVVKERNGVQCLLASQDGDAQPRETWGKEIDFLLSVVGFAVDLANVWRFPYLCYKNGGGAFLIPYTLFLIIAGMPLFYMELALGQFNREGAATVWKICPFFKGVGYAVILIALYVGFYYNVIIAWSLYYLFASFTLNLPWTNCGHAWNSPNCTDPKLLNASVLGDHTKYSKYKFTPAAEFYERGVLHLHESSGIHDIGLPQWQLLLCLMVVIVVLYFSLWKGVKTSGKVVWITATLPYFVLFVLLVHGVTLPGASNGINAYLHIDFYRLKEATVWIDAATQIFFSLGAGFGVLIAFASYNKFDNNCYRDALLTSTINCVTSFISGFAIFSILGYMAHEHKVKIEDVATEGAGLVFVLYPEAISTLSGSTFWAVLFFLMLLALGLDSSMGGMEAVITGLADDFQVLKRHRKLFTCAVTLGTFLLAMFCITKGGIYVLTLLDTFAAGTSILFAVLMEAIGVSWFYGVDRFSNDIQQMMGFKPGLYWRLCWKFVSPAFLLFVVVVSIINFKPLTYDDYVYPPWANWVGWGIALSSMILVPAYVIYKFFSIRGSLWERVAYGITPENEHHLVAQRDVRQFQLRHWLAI

**Q.** Which inhibition at 100 µM does the source give for `NC(=O)C[S+]([O-])C(c1ccccc1)c1ccccc1` (racemic) [(±)-1, reference compound] here?
**A.** < 50%
